Results on one molecule are retold here after ChEMBL document CHEMBL5729292, “Bromodomain inhibitor compound and use thereof” (2022).

The IC50 is the midpoint of a concentration-inhibition curve. Read a high IC50 as weaker potency.

This assay concerns the target Bromodomain-containing protein 4 (Homo sapiens, UniProt O60885). The experiment in a line: Inhibitory Activity Assay of BRD4 Small Molecule Compounds: AlphaScreen kit (Perkin Elmer) was used to detect effect of the compounds on binding of BRD4 bromodomain to acetylated histone H4 polypeptide. […] Each of fusion proteins containing (His)6tag can be recognized and bound by Ni2+. […] The donor microbeads were coated with streptavidin and can bind to biotinylated acetylated H4 polypeptide. The acceptor microbeads were coated with Ni2+ ions and can bind to the BD1 protein with (His)6tag. When the BD1 protein recognized the acetylated H4 polypeptide, the donor microbeads and the acceptor microbeads can be brought closer to a certain distance. Within this range, the donor microbeads can produce singlet oxygen after being irradiated with a 680 nm excitation light, and transfer the singlet oxygen to the acceptor microbeads. After a series of cascade chemical reactions, the acceptor microbeads will generate an emission wave of 520-620 nm, which in turn can be detected a signal. In this experiment, the test system was 20 μL, and the compound needs to be diluted in buffer 1 (20 mM HEPES pH 7.4, 150 mM NaCl, 1 mM dithiothreitol). First, a solution of 20 mM compound was consecutively diluted twice, each in 10 times, totally in 100 times to a concentration of 200 μM. […] […]. (In general: Bead proximity is the source of the signal in Alpha formats.)

The molecule `Cc1cc(-c2cc(NS(C)(=O)=O)ccc2Oc2ccccc2)n2cc[nH]c(=O)c12` returned an IC50 of 0.0429 µM.
